Experimental data published in patent publication US12427179B2, “Compositions and methods for diagnosis and treatment of neurodegenerative diseases” (EPITRACKER, INC., priority 2019, dated 2025).

Tested on: LPS: Venular endothelial cells, peripheral blood mononuclear cells (TLR4 ligand)
Experiment: BioMAP LPS system
Type: cell-based, human
Conditions: first system (LPS); 20 μM; 24 hours
Protocol: Anti-inflammatory phenotypic profiling was conducted across 12 human primary cell-based systems as part of DiscoverX's BioMAP Diversity Plus program. These systems are designed to model complex human tissue and disease biology of the vasculature, skin, lung, and inflammatory tissues. Quantitative measurements of biomarker activities across this broad panel were used to assess each biochemical's anti-inflammatory activity at four concentrations ([…] and 2.2, 6.7 and 20 μM). […] Protein-based biomarkers from activated cell systems were measured and compared with controls. […]
The Diversity PLUS panel allows test agent characterization in an unbiased way across a broad set of systems modeling various human disease states. […] Quantitative measurements of 148 biomarker activities across this broad panel, along with comparative analysis of biological activities from known bioactive agents, were used to predict and compare the efficacy and function of each selected compound at selected concentrations (6.7 and/or 20 μM). […]
Each test agent generates a signature BioMAP profile that is created from the changes in protein biomarker readouts within individual system environments. Biomarker readouts (7-17 per system) are selected for therapeutic and biological relevance, are predictive for disease outcomes or specific drug effects and are validated using agents with known mechanism of action (MoA). […]

Question: With `O=C(O)c1cc(O)c2cccc(O)c2n1` [xanthurenate] as the molecule, how does the “TNF-α, log (10)-transformed ratio for drug-treated samples over vehicle controls” value read?
Answer: The value was −0.19 log (10).
